Assay results from EP1142587A1 (priority 1998, dated 2000).

Chains of the proteins cited; added tags and fusions are not shown.
UniProt P33535, whole entry: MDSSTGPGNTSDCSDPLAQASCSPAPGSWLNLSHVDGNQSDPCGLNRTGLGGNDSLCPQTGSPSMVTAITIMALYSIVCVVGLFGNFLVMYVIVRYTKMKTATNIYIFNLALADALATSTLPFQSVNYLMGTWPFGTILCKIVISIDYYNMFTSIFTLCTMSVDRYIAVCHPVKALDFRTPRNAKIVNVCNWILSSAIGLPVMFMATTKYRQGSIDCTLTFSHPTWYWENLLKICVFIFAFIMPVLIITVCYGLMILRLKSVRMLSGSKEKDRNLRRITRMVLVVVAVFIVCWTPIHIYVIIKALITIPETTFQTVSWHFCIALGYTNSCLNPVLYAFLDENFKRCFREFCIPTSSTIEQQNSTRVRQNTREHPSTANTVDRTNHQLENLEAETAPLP

Each compound was assayed against µ opioid receptor (Rattus norvegicus, UniProt P33535) (assay: Binding affinity with a µ opioid receptor ([3H]-DAMGO membrane binding)). Conditions: read-out: µ Ki value; rat forebrain membrane fraction, 1nM [3H]-DAMGO, 25°C 90 minutes.
`COc1ccc(CN2CCC3(CC2)C(=O)NCN3c2ccccc2)cc1` [Example 14, 1'-(4-methoxybenzyl)-spiroimidazolidine-4,4'-piperidine-3-phenyl-5-on] gave a Ki of 2.7 nM.
`O=C1NCN(c2ccccc2)C12CCN(Cc1ccc(Cl)nc1)CC2` [Example 15, 1'-(6-chloro-3-pyridyl)methyl-spiroimidazolidine-4,4'-piperidine-3-phenyl-5-on] showed a Ki of 0.4 nM.
Compound `Cc1ccc(CN2CCC3(CC2)C(=O)NCN3c2ccccc2)cn1` [Example 16, 1'-(6-methyl-3-pyridyl)methyl-spiroimidazolidine-4,4'-piperidine-3-phenyl-5-on] has a Ki of 0.6 nM.
For `O=C1NCN(c2ccccc2)C12CCN(Cc1cccnc1)CC2` [Example 17, 1'-(3-pyridyl)methyl-spiroimidazolidine-4,4'-piperidine-3-phenyl-5-on], the Ki was 15 nM.
For `O=C1NCN(c2ccccc2)C12CCN(Cc1ccc(Br)cc1)CC2` [Example 18, 1'-(4-bromobenzyl)-spiroimidazolidine-4,4'-piperidine-3-phenyl-5-on], the Ki was 3.4 nM.
`Cc1ccc(CN2CCC3(CC2)C(=O)NCN3c2ccccc2)cc1` [Example 23, 1'-(4-methylbenzyl)-spiroimidazolidine-4,4'-piperidine-3-phenyl-5-on] gave a Ki of 4.2 nM.
